Assays:
[1] = tested on: purely adherent cell line derived from model HBCx-17; assay: SSEA4 expression of cells surviving in vitro treatment with increasing drug concentrations; details: purely adherent HBCx-17 derived cell line, n=4
[2] = tested on: primary tumor cell line derived from model HBCx-17 (suspension and adherent cells); assay: IC50 values of commonly used chemotherapeutic drugs on suspension versus adherent subpopulations of a primary tumor cell line; type: cell-based, human; details: HBCx-17 derived primary tumor cell line; n=3; suspension vs adherent subpopulation

| Substance | fraction of SSEA4 positive cells in the surviving population [1] | IC50 values of suspension cells (higher SSEA4 expression) compared to adherent cells [2] |
| --- | --- | --- |
| 4-Hydroxycyclophosphamide | significantly higher fraction of SSEA4 positive cells | – |
| Cisplatine | – | higher IC50 values |
